## Apparent affinities of Ab-14 variants for a coronavirus HR2 peptide

Values reported by Li et al. 2023, doi:10.1038/s41467-023-39022-2 (FLAb copy).

Antigen: PDVDLGDISGINAS, a 14-residue peptide of the SARS-CoV-2 spike HR2 region.

Ab-14 is the parent antibody, in scFv form: VH, then three GGGGS repeats, then VL. The heavy chain is unchanged in all variants.
VH: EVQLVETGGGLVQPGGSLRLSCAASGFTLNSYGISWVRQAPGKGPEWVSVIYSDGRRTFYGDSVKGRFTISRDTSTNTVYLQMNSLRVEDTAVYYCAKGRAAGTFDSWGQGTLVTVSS
VL: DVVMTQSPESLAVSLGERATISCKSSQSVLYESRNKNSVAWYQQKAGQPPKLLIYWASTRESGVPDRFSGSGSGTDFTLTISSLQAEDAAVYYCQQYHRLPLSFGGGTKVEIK

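Phage display of a naive human antibody library on the peptide gave the parent. The variants were designed computationally from a first round of random CDR variants and then made and measured. Their group label is 14L_En_HC (En: ensemble of fine-tuned language models; HC: hill climbing; a sequence that several methods proposed may carry one label only). The assay is AlphaSeq: two haploid yeast populations carry antibody and antigen on their surface. The frequency of each diploid, read from paired DNA barcodes, reflects how well the two displayed proteins bind. Read counts were normalised to the haploid input and turned into Kd by a linear fit to BCL2-family pairs of known affinity, for each replicate. Mating was done six times.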

Each variant is given by its three light chain CDRs, as the data file delimits them; those of the parent are KSSQSVLYESRNKNSVA, WASTRES, QQYHRLPLS.
Affinities are written as log10 Kd with Kd in nM; a lower number is a better binder.
Averages over replicates are reported, and they cover detected replicates only.
"n.d." marks a missing value. The strain was present, yet no cells mated with the target were sequenced in that replicate, which points to weak or no binding.
In the paper, a design with two or fewer of six values counts as a poor binder.
The parent sequence was in this pool as ten entries: three were never detected, three once, and four in most replicates, with averages from 0.34 to 2.37.
Empty control strains, which show no peptide, gave a signal in 4% of pairings with all light chain designs; the median was 2.64 and 95% of these signals were weaker than 1.59. No background was subtracted. The control count says in how many pairings with the empty strains this scFv gave a signal, with their mean in brackets.
A sequence measured in both rounds can read differently, since the two assays cover different ranges.

| CDR-L1 | CDR-L2 | CDR-L3 | replicates, log10 nM | log10 Kd (nM), mean | control signals |
|---|---|---|---|---|---|
| IISQSVMGESRNKNSVA | QTSERNY | QQYDRLPLA | 1.29 / 1.43 / 0.47 / 1.50 / 1.13 / 0.99 | 1.13 | 0/18 |
| MMSQMFEGLSTVKNPVA | QVSTREE | QQYHRLPLS | 1.54 / 1.16 / 1.19 / 1.45 / 1.26 / 1.97 | 1.43 | 0/18 |
| KLSQVTNSEHKVENSIA | EMVTREK | QQYDRLPLS | 1.64 / 1.47 / 2.33 / 1.50 / 2.07 / 2.20 | 1.87 | 3/18 (3.11) |
| MISDLMKYGSRNKNPIA | NASTREY | QQYHRLPLE | 0.97 / 1.27 / 0.93 / 1.03 / 1.13 / 0.84 | 1.03 | 1/18 (2.60) |
| TISQSAQQEMHNKNSVA | DLNVRGS | QQYDRLPLS | 0.62 / 0.82 / 0.30 / 0.28 / 0.60 / 0.74 | 0.56 | 1/18 (2.25) |
| KLSISYLFESQEKNSIA | ENSTRER | QHYHRLPLS | 1.90 / n.d. / n.d. / n.d. / n.d. / n.d. | 1.90 | 0/18 |
| TVSQVHGMLSHNKNSVA | DMNTRGE | QQYDRLPLS | 0.20 / 0.25 / 0.08 / -0.07 / 0.18 / 0.28 | 0.15 | 1/18 (2.64) |
| IISQSVLGESRNINSVA | QTSEREY | QQYDRLPLS | n.d. / n.d. / n.d. / n.d. / n.d. / n.d. | n.d. | 0/18 |
| KISISHQVESINKSNVA | EMVTRES | QQYDRLPLS | 0.85 / 1.36 / 1.74 / 1.31 / 1.51 / 1.43 | 1.37 | 0/18 |
| KLSQVTHSESRNKNSIA | EMVTREV | QQYDRLPLE | 0.77 / 1.09 / 0.83 / 0.96 / 0.99 / 0.96 | 0.93 | 1/18 (3.06) |
| TITTSMRYESSLKNAIA | NAQTRES | QQYHRLPIS | 0.50 / -0.20 / -0.18 / -0.60 / -0.47 / 0.48 | -0.08 | 0/18 |
| ILSDSVLTLSRNRNSVA | DNSTRES | QQYDRLPLS | 1.34 / 0.59 / 0.67 / 0.75 / 1.03 / 0.50 | 0.81 | 2/18 (2.82) |
| KLSQSVNMTGKNKNSVA | ELSFREE | QQYERLPLS | 1.71 / 1.79 / 1.83 / 2.88 / 2.18 / 2.51 | 2.15 | 0/18 |
| TISQSAQQEMHNKNSVA | DLSVRGS | QQYHRLPLS | 0.36 / 0.77 / 0.32 / 0.28 / 0.42 / 0.60 | 0.46 | 2/18 (2.43) |
| KIGQQVTYESTNKNAIA | QMTTREA | QQYHRLPLS | 0.69 / 0.25 / -0.38 / -0.32 / -0.08 / 0.19 | 0.06 | 0/18 |
| KCQQNVLIMGRNKNNVA | EMTTREE | QQYDRLPLS | 0.17 / 0.35 / 0.30 / -0.02 / 0.27 / 0.40 | 0.24 | 1/18 (2.89) |
| KISGQYRYESLSKNNIA | EAQTRLK | QQYHRLPLS | 1.36 / 0.82 / 0.79 / 0.92 / 1.54 / 0.73 | 1.03 | 0/18 |
| KLGQSVAMTSRGKNNVA | DLNERER | QQYHRLPLS | -0.08 / -0.14 / -0.05 / -0.30 / -0.20 / 0.16 | -0.10 | 2/18 (3.00) |
| MLSDTVMQGMYSRNSVA | QESTRAE | QQYHHLPLS | 0.97 / 0.33 / 0.65 / 0.66 / 0.41 / 0.80 | 0.63 | 1/18 (2.84) |
| KLPLATMQEMVSKNNVA | ELSTRGS | QQYHRLPLS | n.d. / 0.00 / -0.37 / 0.73 / -0.14 / 0.43 | 0.13 | 0/18 |
| HISQSVGMTSFNKNSVA | ENSTRED | QQYDRLPLS | n.d. / n.d. / n.d. / n.d. / n.d. / n.d. | n.d. | 1/18 (1.60) |
| TISQSVLMTGLNRNSVA | QASERIE | QQYHRLPLS | 0.59 / 0.61 / 0.41 / 0.31 / 0.49 / 0.36 | 0.46 | 1/18 (2.65) |
| KISMLYNYESTNKNSIA | EMTTRES | QHYHRLPLS | 1.56 / 1.34 / 0.60 / 1.17 / 0.95 / 1.63 | 1.21 | 2/18 (2.54) |
| TISQSWNMTSKGKNSVA | QAEMRES | QQYDRLPLS | 0.91 / 0.74 / 0.99 / 1.07 / 1.80 / 1.05 | 1.09 | 0/18 |
| KISATYRYESQNKNSIA | EMTTRES | QCYHRLPLS | 0.88 / 0.55 / 1.92 / 1.06 / 1.05 / n.d. | 1.09 | 0/18 |
| IFSQSVLMGNLTKNSVA | QASTRFD | QQYHRLPLI | 1.61 / 0.81 / 1.36 / 2.52 / 1.94 / 2.32 | 1.76 | 0/18 |
| MISDMGLHDSRIQDSVA | NNSTREA | QQYDRLPLS | n.d. / 2.63 / 2.30 / 3.86 / 2.96 / n.d. | 2.94 | 0/18 |
| IFSQSVLMGNLTKNSVA | QASTRFN | QQYHRLPLI | 1.21 / 1.46 / 0.99 / 2.25 / 1.87 / 1.38 | 1.53 | 2/18 (3.31) |
| NSSGPGMFESRNKNSVA | HASTREE | QQYDRLPLS | 1.06 / 1.18 / 1.15 / 0.58 / 1.65 / 1.13 | 1.12 | 1/18 (3.11) |
| ALSESMDMTSRNVNSVA | DLTTRGN | QQYHRLPLS | 0.43 / 0.36 / 0.21 / 0.31 / 0.13 / 0.59 | 0.34 | 1/18 (1.64) |
| KLRQLTHIESFNKNNVA | EMTTRES | QSYDRLPLS | 0.87 / 0.70 / 0.39 / 0.56 / 1.00 / 0.84 | 0.73 | 2/18 (3.34) |
| KLSQFYRMETRDKNSVA | DNSTRES | QDYDRLPLS | n.d. / n.d. / n.d. / n.d. / n.d. / n.d. | n.d. | 0/18 |
| ALSGSMDMTSRNVNSVA | DLTTRGN | QQYHRLPLS | 0.03 / 0.07 / -0.04 / -0.16 / -0.12 / -0.16 | -0.06 | 1/18 (2.51) |
| SLAESAHLESRNKNSVA | DNSTRES | QHYDRLPLS | n.d. / n.d. / n.d. / n.d. / n.d. / n.d. | n.d. | 1/18 (2.80) |
| KIGGVTNGISFSKNNVA | EQSTRED | QQYDRLPLS | 0.42 / 1.28 / 0.84 / 0.83 / 0.11 / 0.99 | 0.74 | 0/18 |
| KISSLTMYESVQKNNIA | EMSTRPS | QSYHRLPLS | 0.91 / 1.22 / 1.07 / 0.65 / 1.15 / 0.91 | 0.99 | 2/18 (2.01) |
| KLSQLFYKESLNKNNVA | EMTTRGS | QQYDRLPLS | 0.08 / 0.10 / -0.12 / 0.09 / -0.14 / 0.01 | 0.00 | 0/18 |
| TISSSAQQESHNKNSVA | DLSVRGS | QQYHRLPLS | 1.21 / 1.22 / 0.72 / 0.98 / 0.57 / 1.24 | 0.99 | 1/18 (2.41) |
| KLYMSTGYESRNKDSIA | DNSTRGR | QQYHRLPLS | 2.68 / 1.77 / 2.27 / 3.74 / 3.14 / 2.27 | 2.64 | 2/18 (3.11) |
| KLRQVTEYESFDKNSVA | QTETREN | QDYDRLPLS | n.d. / 0.61 / 0.99 / 0.16 / 0.84 / 1.19 | 0.76 | 1/18 (1.71) |
| MISQSFLIGSRAKNSVA | QTSERES | QQYDRLPLS | -0.36 / -0.04 / -0.19 / -0.36 / -0.44 / -0.36 | -0.29 | 0/18 |
| MFSQLMEYGSRYKNSVA | QASTREN | QQYHWLPLS | 0.67 / 0.22 / 0.16 / 0.62 / 0.70 / 1.03 | 0.57 | 0/18 |
| TLSDLMYMESRNKNSVA | DLVKRES | QQYHRLPLS | -0.11 / -0.26 / -0.32 / -0.44 / -0.36 / -0.21 | -0.28 | 0/18 |
| TLTQSVGMESHKKNSVA | DLSTRGS | QQYHRLPLS | 1.20 / 0.47 / 0.43 / 0.87 / 0.72 / 0.79 | 0.75 | 0/18 |
| KLSESVRMESFNKDSVA | ENSTREA | QDYHRLPLS | 1.10 / 1.38 / 1.93 / 2.09 / n.d. / 0.89 | 1.48 | 1/18 (1.78) |
| NFSQMVLTGSTLRNSVA | HASTREE | QQYHRLPLI | 0.55 / 0.74 / 0.76 / 0.33 / 0.59 / 0.78 | 0.62 | 1/18 (2.78) |
| KISMLQRFQQNAKNNIA | EMSRREE | QQYHRLPLS | 1.90 / 1.12 / 1.47 / 1.42 / 1.37 / 1.53 | 1.47 | 0/18 |
| ILSQSVLMGMHTRNNVA | QATMRFN | QQYHRLPFM | n.d. / 1.82 / n.d. / n.d. / 0.60 / n.d. | 1.21 | 1/18 (2.63) |

Picked from the list: the 5 lowest averages where every replicate gave a value.

CDR-L1	CDR-L2	CDR-L3	replicates, log10 nM	log10 Kd (nM), mean	control signals
MISQSFLIGSRAKNSVA	QTSERES	QQYDRLPLS	-0.36 / -0.04 / -0.19 / -0.36 / -0.44 / -0.36	-0.29	0/18
TLSDLMYMESRNKNSVA	DLVKRES	QQYHRLPLS	-0.11 / -0.26 / -0.32 / -0.44 / -0.36 / -0.21	-0.28	0/18
KLGQSVAMTSRGKNNVA	DLNERER	QQYHRLPLS	-0.08 / -0.14 / -0.05 / -0.30 / -0.20 / 0.16	-0.10	2/18 (3.00)
TITTSMRYESSLKNAIA	NAQTRES	QQYHRLPIS	0.50 / -0.20 / -0.18 / -0.60 / -0.47 / 0.48	-0.08	0/18
ALSGSMDMTSRNVNSVA	DLTTRGN	QQYHRLPLS	0.03 / 0.07 / -0.04 / -0.16 / -0.12 / -0.16	-0.06	1/18 (2.51)